From paper PMC5465288, “[^68Ga]/[^188Re] Complexed [CDTMP] Trans-1,2-Cyclohexyldinitrilotetraphosphonic Acid As a Theranostic Agent for Skeletal Metastases” (Frontiers in Medicine, 2017) come the findings set out here.

Like-named read-outs stand apart in the source and are kept apart here.

A short description of one series: Biodistribution study. The class given is in vivo, BALB/c mice. Particulars: mice, 3.7 MBq i.v., 45 min postinjection. As for the experimental part: 3.7 MBq of labeled [^68Ga]-CDTMP complex was injected intravenously into the tail vein of each animal. The animals were dissected at particular time intervals up to 2 h postinjection, and desired organs were collected for [^68Ga]-CDTMP and for [^188Re]-CDTMP, the biodistribution was carried out up to 96 h at specific time intervals. The required organs were removed, made free from adhering tissue, and washed with normal saline. The radioactivity in each organ was counted using gamma counter. The data are expressed as the percent-administered dose per gram of the organ.

The conditions of series [1]: human serum, 37°C, after 3 h.
For series [2] the following is noted: rabbit, 20 MBq i.v.
The conditions of series [3]: rabbit, 45 min postinjection.
The conditions of series [4]: Balb/C mice, 45 min postinjection.
Where [5] appears, read: MicroPET semiquantitative analysis.

“[^68Ga]-trans-1,2-cyclohexyldinitrilo tetramethylene phosphonic acid [[^68Ga]-CDTMP]” had a maximum bone uptake in the series “Biodistribution study” of 6.12 ± 1.22 %ID/g. Further, the “remaining intact in serum” value in series [1] worked out at 97.5%. Further, the “activity remained in the blood” value in series [2] (at 4 h) is recorded as “approximately 18%”. In addition, the “biological half-life t1/2 (fast)” value in series [2] (blood) is on record as 12 min. The “bone to muscle ratio” value in series [3] (PET volume of interest analysis) is on record as 21.258 ± 1.3; in series [4] (setting [5]), 24.146 ± 0.98. The “bone uptake in PET image” value in series [3] is on record as “High bone uptake as compared to contralateral tissue”. The “bone uptake in MicroPET image” value in series [4] is “High bone uptake as compared to contralateral tissue”. In addition, the “bone to kidney ratio” value in series [4] (setting [5]) is 7.976 ± 0.78.
